# Measured values taken from PubChem BioAssay AID1259312 (Keith Lab, Institute of Cancer Science, University of …, 2017).
# Only a part is listed here, and it is no random draw. The source made the active and inactive calls.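 Rule for the calls: active = cell survival measured by absorbance rises more than 2.5-fold over infected cells without compound; inactive = the rest.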
# Test: survival after telomere uncapping, modulators, primary screen, cell-based (AID 1259312);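 note: virus expresses mutant telomerase RNA that uncaps telomeres and kills cells; compound added 2 days after infection so exposure lasts 3 days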
# Details: HCT116 + Ad-hTR-mut, MTT, 5 d, at 10 µM, active compounds read high
row,Compound,fold change
1,Cc1c(Br)c([N+](=O)[O-])nn1[N+](=O)[O-],inactive: -1.74
2,O=[N+]([O-])c1cc(Cl)ccc1NCCNc1c([N+](=O)[O-])cc(C(F)(F)F)cc1[N+](=O)[O-],inactive: -2.05
3,O=c1[nH]nc(SCCOS(=O)(=O)O)c(=O)[nH]1,inactive: -1.16
4,CN1CC(=O)N/C1=N\P(=O)(OCc1ccccc1)OCc1ccccc1,inactive: 1.2
